# Measurements taken from patent US10065963B2 (Incyte Corporation, priority 2015, dated 2018).
# By UniProt entry, the sequences of proteins in these tests, tags left out. Where a name states a change or a piece, a line headed by the entry shows the natural chain unless it says otherwise.
# UniProt O00329: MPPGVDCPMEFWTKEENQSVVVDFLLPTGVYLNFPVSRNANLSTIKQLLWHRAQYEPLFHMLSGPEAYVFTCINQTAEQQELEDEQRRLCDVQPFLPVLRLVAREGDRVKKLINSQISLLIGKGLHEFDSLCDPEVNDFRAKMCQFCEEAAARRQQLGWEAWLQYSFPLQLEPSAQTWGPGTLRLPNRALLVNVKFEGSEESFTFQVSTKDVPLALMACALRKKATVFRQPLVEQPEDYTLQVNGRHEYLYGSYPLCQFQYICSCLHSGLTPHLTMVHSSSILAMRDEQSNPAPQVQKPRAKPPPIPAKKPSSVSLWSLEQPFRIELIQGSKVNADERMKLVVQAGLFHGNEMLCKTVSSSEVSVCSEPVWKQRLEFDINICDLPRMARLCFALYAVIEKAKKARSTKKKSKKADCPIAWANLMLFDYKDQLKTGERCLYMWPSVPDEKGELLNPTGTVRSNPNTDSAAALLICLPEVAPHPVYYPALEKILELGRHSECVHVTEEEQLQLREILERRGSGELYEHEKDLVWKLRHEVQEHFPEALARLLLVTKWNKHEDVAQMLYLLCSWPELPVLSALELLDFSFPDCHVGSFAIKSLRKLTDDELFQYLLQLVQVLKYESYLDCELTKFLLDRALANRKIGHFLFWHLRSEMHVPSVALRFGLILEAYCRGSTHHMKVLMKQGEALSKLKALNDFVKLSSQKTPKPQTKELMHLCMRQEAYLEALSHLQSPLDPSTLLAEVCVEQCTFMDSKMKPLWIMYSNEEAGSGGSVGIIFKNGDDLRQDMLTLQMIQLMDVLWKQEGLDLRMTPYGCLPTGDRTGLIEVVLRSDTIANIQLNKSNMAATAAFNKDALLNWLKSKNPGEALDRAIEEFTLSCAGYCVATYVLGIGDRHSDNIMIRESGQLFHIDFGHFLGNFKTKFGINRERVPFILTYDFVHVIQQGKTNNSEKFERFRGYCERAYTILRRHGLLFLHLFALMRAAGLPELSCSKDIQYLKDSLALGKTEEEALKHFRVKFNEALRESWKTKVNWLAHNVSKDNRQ
# Target: PI3Kδ (p110δ/p85α) Recombinant Human Protein (Homo sapiens (Human), UniProt O00329)
# Experiment: PI3Kδ scintillation proximity assay
# Assay type: biochemical
# Settings: Table B, Assay C
smiles,measurement,value
"CC(Nc1ncnc2[nH]cnc12)c1cc(Cl)c2ccnnc2c1-c1cccc(F)c1 (single isomer, unassigned) [Example 33, N-{1-[5-chloro-8-(3-fluorophenyl)cinnolin-7-yl]ethyl}-9H-purin-6-amine]",IC50,< 50 nM
